According to US9532983B2, “Benzofuran compounds, compositions, kits and/or methods thereof” (Savannah State University, priority 2013, dated 2017):
pKi: −log10 of the molar value.

Amino acid sequences for entries named in this document (tags omitted).
UniProt Q9R0C9, whole entry: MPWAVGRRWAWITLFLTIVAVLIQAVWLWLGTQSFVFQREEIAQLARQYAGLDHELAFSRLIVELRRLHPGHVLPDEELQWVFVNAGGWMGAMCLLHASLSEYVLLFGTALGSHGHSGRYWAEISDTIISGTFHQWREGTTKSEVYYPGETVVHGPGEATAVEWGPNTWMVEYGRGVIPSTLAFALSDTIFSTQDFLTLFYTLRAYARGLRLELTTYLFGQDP
UniProt P08913, whole entry: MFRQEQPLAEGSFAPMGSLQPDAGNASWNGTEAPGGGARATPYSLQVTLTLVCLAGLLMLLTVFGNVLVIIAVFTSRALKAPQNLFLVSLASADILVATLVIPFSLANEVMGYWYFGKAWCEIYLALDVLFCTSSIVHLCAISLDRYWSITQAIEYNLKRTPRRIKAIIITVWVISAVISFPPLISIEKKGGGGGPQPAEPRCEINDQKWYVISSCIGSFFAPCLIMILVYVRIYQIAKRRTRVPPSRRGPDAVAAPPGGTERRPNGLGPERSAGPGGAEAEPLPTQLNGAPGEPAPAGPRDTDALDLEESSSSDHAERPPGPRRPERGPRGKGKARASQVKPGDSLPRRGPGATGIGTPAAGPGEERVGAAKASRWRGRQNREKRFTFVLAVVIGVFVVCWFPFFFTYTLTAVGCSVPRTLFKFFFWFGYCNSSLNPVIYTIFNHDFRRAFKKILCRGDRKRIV
UniProt P35462, whole entry: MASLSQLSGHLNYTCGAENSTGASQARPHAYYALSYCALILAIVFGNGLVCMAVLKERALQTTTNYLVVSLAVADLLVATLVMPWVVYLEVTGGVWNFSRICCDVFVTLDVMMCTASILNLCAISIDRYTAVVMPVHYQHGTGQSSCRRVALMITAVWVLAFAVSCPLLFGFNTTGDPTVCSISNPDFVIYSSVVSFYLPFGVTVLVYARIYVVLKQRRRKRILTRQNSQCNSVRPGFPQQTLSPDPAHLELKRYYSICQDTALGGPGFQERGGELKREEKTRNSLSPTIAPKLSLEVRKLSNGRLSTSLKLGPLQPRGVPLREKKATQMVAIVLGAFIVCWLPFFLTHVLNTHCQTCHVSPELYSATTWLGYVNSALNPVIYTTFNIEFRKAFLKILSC

Assays:
non-sigma receptors = test: Binding screen against panel of non-sigma receptors (overall statement)
Experimental: (§1) Initial primary binding screening assays were performed using a 50 μM (initial)−10 μM (final) assay concentration of reference and test compounds.

σ1 receptor = molecular target: T1, σ1 receptor (Rattus norvegicus, UniProt Q9R0C9); test: Secondary binding assay, Ki determination at σ1 receptor ([3H]pentazocine)
T1 construct: crude membrane fractions prepared from rat brain homogenate for σ1 receptors; from tissue; host or cells: rat brain homogenate, crude membrane fraction

Alpha2A [1] = molecular target: T2, Alpha2A (Homo sapiens, UniProt P08913); test: Secondary binding assay, Ki determination: Alpha2A
T2 construct: expressed in transfected cells

Alpha2A [2] = molecular target: T2, Alpha2A; test: Primary binding assay at non-sigma receptors: Alpha2A; details: read-out: % Inhibition Alpha2A
Experimental: as §1

D3 [3] = molecular target: T3, D3 (Homo sapiens, UniProt P35462); details: read-out: Ki (nM) D3; secondary binding assay
D3 [4] = molecular target: T3, D3; test: Primary binding assay at non-sigma receptors: D3; design: expressed in transfected cells; details: read-out: % Inhibition D3
Experimental: as §1

Row | Compound | affinity at non-sigma receptors selected for secondary binding assay (in words) (non-sigma receptors) | selectivity for sigma receptors (σ1 and σ2) over non-sigma receptors (in words) (non-sigma receptors) | σ-2/σ-1 (selectivity for σ1 over σ2) (σ1 receptor; ratio of Ki values) | Ki (Alpha2A [1]) [nM] | inhibition at 10 µM (Alpha2A [2]) [%] | Ki (D3 [3]) [nM] | pKi (σ1 receptor; [3H]pentazocine, rat brain homogenate, read-out: σ-1 (Ki)) | inhibition at 10 µM (D3 [4]) [%]
1 | COc1cc2oc(C(=O)N(CCCN3CCCCC3)c3ccccc3)c(C)c2cc1OC [KSCM-1, 5,6-Dimethoxy-3-methyl-N-phenyl-N-(3-(piperidin-1-yl)propyl)benzofuran-2-carboxamide] | no significant affinity | have the desired selectivity for sigma receptors | 19 | 945 | 55.2 | – | – | –
2 | Cc1c(C(=O)N(CCCN2CCCCC2)c2ccccc2)oc2ccccc12 [KSCM-5, 3-Methyl-N-phenyl-N-(3-(piperidin-1-yl)propyl)benzofuran-2-carboxamide] | – | have the desired selectivity for sigma receptors | – | – | – | 6740 | 8.11 | 60.6
